Tested on: Limulus Amoebocyte Lysate

(3R,9R)-3-[(R)-3-dodecanoyloxytetradecanoylamino]-4oxo-5-aza-9-[(R)-3-hydroxytetradecanoylamino]-1,10-diol 1-dihydrogenphosphate 10-(6-aminohexanoate) [OM-197-MP-AC (R, R)]
LAL EU/mg of product: 0.15 EU/mg of product | LAL ng of LPS equivalent per mg of product: 0.012 ng of LPS equivalent per mg of product
